For the test, the target named is RAD51 80-339 (UniProt Q06609). Put plainly: biotin-peptide streptavidin pull-down, anti-RAD51 blot. The conditions noted are these: reference: unphosphorylated BRCA2Exon 27 peptide; sites S3291.

On to “BRCA2 3270-3305 (from UniProt P51587) pS3291 peptide (BRCA2Exon 27-Ph)”, for which the “binding against the reference” value was “lost”.

Values taken from PMC2096194 (Nature structural & molecular biology, 2007).
